The chains behind the UniProt entries cited, without tags or fusion partners.
UniProt P11712, whole entry: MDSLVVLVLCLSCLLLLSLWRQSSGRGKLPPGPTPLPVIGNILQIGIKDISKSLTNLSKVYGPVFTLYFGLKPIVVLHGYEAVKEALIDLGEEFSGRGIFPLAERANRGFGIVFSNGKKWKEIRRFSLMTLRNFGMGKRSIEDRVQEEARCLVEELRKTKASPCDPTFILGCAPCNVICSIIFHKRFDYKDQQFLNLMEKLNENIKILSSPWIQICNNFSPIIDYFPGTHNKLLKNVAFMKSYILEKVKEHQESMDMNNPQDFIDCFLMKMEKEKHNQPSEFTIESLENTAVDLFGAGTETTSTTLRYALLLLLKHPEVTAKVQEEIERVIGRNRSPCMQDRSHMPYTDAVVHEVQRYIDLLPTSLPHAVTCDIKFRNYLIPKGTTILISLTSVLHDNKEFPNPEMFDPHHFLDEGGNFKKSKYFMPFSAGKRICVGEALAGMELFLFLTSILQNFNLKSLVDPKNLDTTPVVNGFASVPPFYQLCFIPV

According to patent US20200247794A1, “PHARMACOPHORES, COMPOUNDS AND METHODS HAVING APPLICATION IN THE TREATMENT OF CANCER THROUGH INHIBITION OF CYP17A1 AND CYP19A1” (MANGOSUTHU UNIVERSITY OF TECHNOLOGY, priority 2015, published 2020):

Target: CYP2C9 (Homo sapiens, UniProt P11712)
Assay: biochemical

IC50: 1500 nM
Structure (SMILES): Cc1nc(SC(C(=O)c2c[nH]c3ccccc23)c2ccccc2)sc1CC(N)=O (racemic) [Compound 3, 2-(2-{[2-(1H-indol-3-yl)-2-oxo-1-phenylethyl]sulfanyl}-4-methyl-1,3-thiazol-5-yl)acetamide]
